Reference: US6730699B2, “Water soluble paclitaxel derivatives” (priority 2001, dated 2004)
Like-named read-outs stand apart in the source and are kept apart here.

Assays:
[1] = not given; remark: listed apart in the source
[2] = sodium salt of DTPA-paclitaxel
[3] = single dose intravenous injection, mice
[4] = buffer, pH 9.3
[5] = not given; remark: listed apart in the source

## Poly-Glutamic Acid-Paclitaxel [PG-TXL]
PBS at various pH
  hydrolytic stability: more stable in acidic solution than in basic solution
PBS pH 7.4, 37° C., 3 days
  paclitaxel released: about 10%
[1]; within 48 h after injection
  radioactivity recovered as radioactive paclitaxel: less than 1%
[1]; within 144 h after injection
  radioactivity recovered as [^3H]paclitaxel in plasma: less than 0.1%

## diethylenetriaminepentaacetic acid-paclitaxel [DTPA-paclitaxel]
[2]
  solubility: > 20 mg equivalent paclitaxel/ml
[3]
  LD50 (50% lethal dose): about 110 mg/kg body weight
[4]
  half-life: about 16 days

## polyethylene glycol-paclitaxel [PEG-paclitaxel]
[5]; phosphate buffer pH 7.4, 37° C.
  half life: 54 min
[5]; phosphate buffer pH 9.0, 37° C.
  half-life: 7.6 min
